Results from paper PMC6476873.

Biological target: P10636
Test: co-sedimentation; pelleting assay: 10 μM Tau^RDΔK induced to aggregate with 2.5 μM heparin in PBS, 1 mM DTT, 37 °C, up to 24 h; centrifuged at 100,000×g; supernatant and pellet on SDS-PAGE, Coomassie, densitometry

B1: Tau^RDΔK, Tau repeat domain (K18, residues 244–372) with the FTDP-17 mutation ΔK280, recombinant (protein)
chain: QTAPVPMPDLKNVKSKIGSTENLKHQPGGGKVQIINKLDLSNVQSKCGSKDNIKHVPGGGSVQIVYKPVDLSKVTSKCGSLGNIHHKPGGGQVEVKSEKLDFKDRVQSKIGSLDNITHVPGGGNKKIE
percent of the protein in the insoluble pellet (aggregates): ~ 60% of the protein formed aggregates
